Reference: patent publication US20260272932A1, “METHOD OF TREATING EARLY BREAST CANCER WITH RIBOCICLIB IN COMBINATION WITH AN AROMATASE INHIBITOR” (Novartis AG, priority 2023, published 2026)

Test system: patients with advanced BC
Assay: MONALEESA-2, -3 and -7: QTcF prolongation in ribociclib arms

SMILES: CN(C)C(=O)c1cc2cnc(Nc3ccc(N4CCNCC4)cn3)nc2n1C1CCCC1 [Ribociclib, ribociclib]
- patients with newly occurring post baseline QTcF of >480 msec (MONALEESA-2 ribociclib arm): 6.9%
- patients with newly occurring post baseline QTcF of >480 msec (MONALEESA-3 ribociclib arm): 5.6%
- patients with newly occurring post baseline QTcF of >480 msec (MONALEESA-7 (NSAI subgroup) ribociclib arm): 5.3%
